By UniProt entry, the sequences of proteins in these tests, tags left out. Where a name states a change or a piece, a line headed by the entry shows the natural chain unless it says otherwise.
UniProt Q9H7B4: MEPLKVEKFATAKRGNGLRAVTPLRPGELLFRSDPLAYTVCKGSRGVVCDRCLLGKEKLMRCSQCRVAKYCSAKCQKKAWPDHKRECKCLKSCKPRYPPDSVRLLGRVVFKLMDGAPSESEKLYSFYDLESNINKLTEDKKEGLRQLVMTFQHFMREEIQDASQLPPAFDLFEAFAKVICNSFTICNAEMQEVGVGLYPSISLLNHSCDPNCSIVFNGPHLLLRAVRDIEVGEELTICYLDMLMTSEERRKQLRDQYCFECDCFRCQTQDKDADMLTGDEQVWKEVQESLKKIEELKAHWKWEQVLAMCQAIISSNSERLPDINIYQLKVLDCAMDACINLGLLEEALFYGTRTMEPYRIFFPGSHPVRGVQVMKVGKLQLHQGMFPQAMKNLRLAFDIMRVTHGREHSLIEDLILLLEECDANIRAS

In patent US10106510B2, “Substituted isoxazoles for treating cancer” (EPIZYME, INC., priority 2014, dated 2018):

Biological target: SMYD3 (Homo sapiens (Human), UniProt Q9H7B4)
Assay: SMYD3 biochemical assay (SMYD3 enzyme assay on MEKK2 protein substrate, scintillation proximity assay)
Conditions: 3H-SAM, SPA, IC50 values are an average of n = 1 to n = 50, read-out: SMYD3 Biochem IC50
Source text: S-adenosylmethionine (SAM), S-adenosylhomocysteine (SAH), Tris, Tween20, dimethylsulfoxide (DMSO), bovine skin gelatin (BSG), and Tris(2-carboxyethyl)phosphine hydrochloride solution (TCEP) were purchased from Sigma-Aldrich at the highest level of purity possible. ^3H-SAM was purchase from American Radiolabeled Chemicals with a specific activity of 80 Ci/mmol. 384-well opaque white OptiPlates and SPA beads (Perkin Elmer, catalog # RPNQ0013) were purchased from PerkinElmer.
N-terminally GST-tagged MEKK2 (MAP3K2) protein corresponding to reference sequence AAF63496.3 was purchased from Life Technologies (catalog # PV4010). This protein was expressed in High Five insect cells and purified to >85 % purity. Protein identity was confirmed by MS/MS analysis after proteolytic digestion. The protein sequence used was:
Full-length human SMYD3 isoform 1 (BAB86333) was inserted into a modified pET21b plasmid containing a His6 tag and TEV and SUMO cleavage sites. Because two common variants of SMYD3 exist in the population, site directed mutagenesis was subsequently performed to change amino acid 13 from an asparagine to a lysine, resulting in plasmid pEPZ533. A lysine at position 13 conforms to the more commonly occurring sequence (NP_001161212).
E. coli (BL21 codonplus RIL strain, Stratagene) were transformed with plasmid pEPZ553 by mixing competent cells and plasmid DNA and incubating on ice for 30minutes followed by heat shock at 42° C. for 1 minute and cooling on ice for 2 minutes. Transformed cells were grown and selected on LB agar with 100 μg/mL ampicillin and 17 μg/mL chloramphenicol at 37° C. overnight. A single clone was used to inoculate 200 mL of LB medium with 100 μg/mL ampicillin and 17 μg/mL chloramphenicol and incubated at 37° C. on an orbital shaker at 180 rpm. Once in log growth, the culture was diluted 1:100 into 2 L of LB medium and grown until OD600 was about 0.3 after which the culture was incubated at 15° C. and 160 rpm. Once OD600 reached about 0.4, IPTG was added to a final concentration of 0.1 mM and the cells were grown overnight at 15° C. and 160 rpm. Cells were harvested by centrifugation at 8000 rpm, for 4 minutes at 4° C. and stored at −80° C. for purification.
Expressed full-length human His-tagged SMYD3 protein was purified from cell paste by Nickel affinity chromatography after equilibration of the resin with Buffer A (25 mM Tris, 200 mM NaCl, 5% glycerol, 5 mM β-mercaptoethanol, pH7.8). The column was washed with Buffer B (Buffer A plus 20 mM imidazole) and His-tagged SMYD3 was eluted with Buffer C (Buffer A plus 300 mM imidazole). The His tag, TEV and SUMO cleavage sites were removed generating native SMYD3 by addition of ULP1 protein at a ratio of 1:200 (ULP1:SMYD3). […]

SMILES	IC50 [µM]
NC[C@@H](O)CC(=O)N[C@H]1CC[C@H](NC(=O)c2cc(C3CC3)on2)CC1 [compound 31, N-((1S,4r)-4-((S)-4-amino-3-hydroxy-butanamido)cyclohexyl)-5-cyclopropylisoxazole-3-carboxamide]	1.07
N[C@H]1CCC[C@H](C(=O)N[C@H]2CC[C@H](NC(=O)c3cc(C4CC4)on3)CC2)C1 [compound 20, N-((1S,4r)-4-((1S,3S)-3-aminocyclohexane-1-carboxamido)cyclohexyl)-5-cyclopropylisoxazole-3-carboxamide]	0.625
NC[C@H](O)CC(=O)N[C@H]1CC[C@H](NC(=O)c2cc(C3CC3)on2)CC1 [compound 30, N-((1R,4r)-4-((R)-4-amino-3-hydroxybutanamido)cyclohexyl)-5-cyclopropylisoxazole-3-carboxamide]	1.69
CC(C)CN[C@H]1CC[C@H](NC(=O)c2cc(C3CC3)on2)CC1 [compound 24, 5-cyclopropyl-N-((1r,4r)-4-(isobutylamino)cyclohexyl) isoxazole-3-carboxamide]	2.56
